# Values quoted from earlier work as cited in patent publication US20150072881A1 (priority 2010, published 2015).
# Test system: genes (and gene products, eg., mRNA or protein)
# Settings: in vivo
smiles,measurement,value
"CCCCCc1cc(O)c2c(c1)OC(C)(C)[C@@H]1CCC(C)=C[C@@H]21 [THC, Delta-tetrahydrocannabinol]",mRNA increase,"zif268, blocked by SL327 an inhibitor of MAPK/ERK kinase, as"
